Like-named read-outs stand apart in the source and are kept apart here. Values belong to the compound of their own block, whether it stands above or below them.
Assays:
A375 cells [1] = settings: read-out: A375 XTT IC50 uM
[2] = system: phospho-ERK1/2 in A375 cells; settings: read-out: A375 ICW IC50
A375 cells [3] = experiment: cells; settings: Homo sapiens, A-375, 72 h, read-out: A375 XTT IC50 uM
MEK = MEK (Homo sapiens (Human), UniProt Q02750); experiment: biochemical

By UniProt entry, the sequences of proteins in these tests, tags left out.
UniProt Q02750, whole entry: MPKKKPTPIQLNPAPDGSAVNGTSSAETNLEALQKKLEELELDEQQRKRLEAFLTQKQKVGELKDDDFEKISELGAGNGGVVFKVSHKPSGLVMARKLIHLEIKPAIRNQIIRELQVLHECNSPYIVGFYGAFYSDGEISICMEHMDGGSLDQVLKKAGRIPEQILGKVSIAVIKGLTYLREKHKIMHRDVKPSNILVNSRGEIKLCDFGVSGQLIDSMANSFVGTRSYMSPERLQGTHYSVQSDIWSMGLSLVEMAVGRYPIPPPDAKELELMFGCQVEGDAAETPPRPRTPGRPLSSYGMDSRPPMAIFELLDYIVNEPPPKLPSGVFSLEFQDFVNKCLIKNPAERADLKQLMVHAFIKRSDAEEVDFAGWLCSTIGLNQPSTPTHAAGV

SMILES: Cc1nc2cnc3cc(F)c(-c4ccc(Oc5ncccn5)cc4Cl)cc3c2n1C1CCN(C(=O)C(C)F)CC1 (single isomer, unassigned) [Example 43A, (R or S)-1-(4-(8-(2-chloro-4-(pyrimidin-2-yloxy)phenyl)-7-fluoro-2-methyl-1H-imidazo[4,5-c]quinolin-1-yl)piperidin-1-yl)-2-fluoropropan-1-one]
IC50 (A375 cells [1]): 0.677 µM
IC50 [2]: 848 nM

SMILES: Cc1nc2cnc3cc(F)c(-c4ccc(Oc5ncccn5)cc4Cl)cc3c2n1C1CCN(C(=O)C(C)F)CC1 (single isomer, unassigned) [Example 43B, (R or S)-1-(4-(8-(2-chloro-4-(pyrimidin-2-yloxy)phenyl)-7-fluoro-2-methyl-1H-imidazo[4,5-c]quinolin-1-yl)piperidin-1-yl)-2-fluoropropan-1-one]
IC50 (A375 cells [1]): 2.38 µM
IC50 [2]: 3800 nM

IC50 (A375 cells [3]): 0.108 µM
SMILES: COc1cc(Oc2ncccn2)ccc1-c1cc2c(cc1F)ncc1nc(C)n([C@H]3CCN(C(=O)CO)C[C@@H]3F)c12 [Example 88, 1-((3S,4S)-3-fluoro-4-(7-fluoro-8-(2-methoxy-4-(pyrimidin-2-yloxy)phenyl)-2-methyl-1H-imidazo[4,5-c]quinolin-1-yl)piperidin-1-yl)-2-hydroxyethanone]

SMILES: N#CCc1ccc(-n2cnc3cnc4cc(F)c(-c5ccc(Oc6ccccn6)cc5Cl)cc4c32)cc1 [compound (A)]
IC50 (MEK): < 100 nM

SMILES: COc1cc(Oc2ccccn2)ccc1-c1ccc2ncc3ncn(-c4ccc(CC#N)cc4)c3c2c1 [compound (B)]
IC50 (MEK): < 100 nM
